Earlier results on 1 compound are cited in article PMC8940841, “A metabolically stable PET tracer for imaging synaptic vesicle protein 2A: synthesis and preclinical characterization of [^18F]SDM-16” (European Journal of Nuclear Medicine and Molecular Imaging, 2021).

By UniProt entry, the sequences of proteins in these tests, tags left out.
UniProt Q7L0J3, whole entry: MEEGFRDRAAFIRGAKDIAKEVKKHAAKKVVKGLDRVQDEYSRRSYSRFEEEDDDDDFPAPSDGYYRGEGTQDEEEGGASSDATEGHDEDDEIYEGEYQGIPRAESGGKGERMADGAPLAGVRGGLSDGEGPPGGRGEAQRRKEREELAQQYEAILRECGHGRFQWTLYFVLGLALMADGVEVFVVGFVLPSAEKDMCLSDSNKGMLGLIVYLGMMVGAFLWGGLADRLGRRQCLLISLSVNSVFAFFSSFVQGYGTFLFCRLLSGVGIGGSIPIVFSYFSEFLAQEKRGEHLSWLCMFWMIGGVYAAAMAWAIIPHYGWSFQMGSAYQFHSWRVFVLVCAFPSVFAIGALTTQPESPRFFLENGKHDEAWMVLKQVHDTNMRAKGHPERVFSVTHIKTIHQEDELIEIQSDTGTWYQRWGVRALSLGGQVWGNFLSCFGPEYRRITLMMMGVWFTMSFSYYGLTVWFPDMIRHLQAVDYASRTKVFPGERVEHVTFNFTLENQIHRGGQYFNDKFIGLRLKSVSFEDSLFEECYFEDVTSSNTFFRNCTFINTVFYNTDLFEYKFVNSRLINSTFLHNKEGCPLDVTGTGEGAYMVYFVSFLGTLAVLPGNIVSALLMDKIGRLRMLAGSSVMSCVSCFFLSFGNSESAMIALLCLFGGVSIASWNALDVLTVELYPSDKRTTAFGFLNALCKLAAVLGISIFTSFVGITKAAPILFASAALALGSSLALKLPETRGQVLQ

The structures appear in SMILES notation.

The series addresses human SV2A (Homo sapiens, UniProt Q7L0J3). Conditions: other SV2A ligands; cited from earlier work.

What is called Ki is the equilibrium dissociation constant of an inhibitor or competing ligand from its target. Consider `Cc1cnccc1CN1C[C@@H](c2cccc(F)c2)CC1=O`, for which the Ki was 8.6 nM.
